# Patent US7767822B2, “Water-soluble tetrazolium salts” (Bayer Healthcare LLC, priority 2005, dated 2010)
# Experiment: Solubility of tetrazolium salts in 0.2M phosphate buffer
# Format: physicochemical
Solubilility [mM],Substance,"Solubilility (0.2M phosphate buffer, pH ~7.5, room temperature) [mM]"
167,"5-Benzo[1,3 dioxol-5-yl]-3-[2-(3-trimethylammonium) propoxy-phenyl]-2(benzothiazol-2-yl)-2 H-tetrazolium bromo nitrite salt [Example 4]",–
5,"5-Benzo[1,3 dioxol-5-yl]-3-[2-(3-trimethylammonium) propoxy-phenyl]-2-(6-methoxynapthylthiazol-2-yl)-2 H-tetrazolium bromo nitrite salt [Example 5]",–
–,5-[4-(3-trimethylammonium)propoxy-3-methoxy-phenyl]-3-[2-(3-trimethylammonium) propoxy-phenyl]-2-(6-bromo-benzothiazol-2-yl)-2H-tetrazolium dibromo nitrite salt [Example 8],290

# Like-named read-outs stand apart in the source and are kept apart here.
